By IC50 is commonly meant the concentration at which inhibition is half-maximal.

Sequences of proteins named here, by UniProt entry; tags and fusion partners are left off.
UniProt O43613, whole entry: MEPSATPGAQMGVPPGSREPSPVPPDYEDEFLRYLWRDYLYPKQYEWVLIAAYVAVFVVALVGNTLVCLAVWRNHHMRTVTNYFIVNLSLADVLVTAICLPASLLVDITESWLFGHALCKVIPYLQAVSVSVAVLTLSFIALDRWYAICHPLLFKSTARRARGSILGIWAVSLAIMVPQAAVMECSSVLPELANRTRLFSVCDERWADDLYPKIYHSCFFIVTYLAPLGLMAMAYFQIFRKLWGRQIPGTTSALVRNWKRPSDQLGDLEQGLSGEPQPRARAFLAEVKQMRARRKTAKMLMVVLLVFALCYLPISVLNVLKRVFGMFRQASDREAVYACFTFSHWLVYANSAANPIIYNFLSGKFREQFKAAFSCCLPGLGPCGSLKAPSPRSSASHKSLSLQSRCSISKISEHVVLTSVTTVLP

The target in the assay is T1, Ox-R1 (orexin R1 receptor) (Homo sapiens, UniProt O43613).
T1 construct: gene HCRTR1
Put plainly: FLUO-3 calcium mobilization in HEK-293 cells, inhibition of […] orexin-A response. In kind it is cell-based. (In general: Calcium flux is commonly read through the fluorescence of an indicator in the cells.)

For the compound `CNC(=O)[C@@H](c1ccccc1)N1CCc2cc(OC)c(OC)cc2[C@@H]1CCc1ccc(C(F)(F)F)cc1` [almorexant], the IC50 came out at 191 ± 12 nM.

The values above are taken from publication PMC3448615, “The Dual Orexin/Hypocretin Receptor Antagonist, Almorexant, in the Ventral Tegmental Area Attenuates Ethanol Self-Administration” (PLoS ONE, 2012).
